Top 1 Cleavage data for two compounds are collected here from patent US9796753B2, “N-substituted indenoisoquinolines and syntheses thereof” (Purdue Research Foundation, priority 2005, dated 2017).

For this test, the target named is T1, Human recombinant Top1 (Homo sapiens, UniProt P11387).
T1 construct: made in house
T1 sequence (P11387 1-765): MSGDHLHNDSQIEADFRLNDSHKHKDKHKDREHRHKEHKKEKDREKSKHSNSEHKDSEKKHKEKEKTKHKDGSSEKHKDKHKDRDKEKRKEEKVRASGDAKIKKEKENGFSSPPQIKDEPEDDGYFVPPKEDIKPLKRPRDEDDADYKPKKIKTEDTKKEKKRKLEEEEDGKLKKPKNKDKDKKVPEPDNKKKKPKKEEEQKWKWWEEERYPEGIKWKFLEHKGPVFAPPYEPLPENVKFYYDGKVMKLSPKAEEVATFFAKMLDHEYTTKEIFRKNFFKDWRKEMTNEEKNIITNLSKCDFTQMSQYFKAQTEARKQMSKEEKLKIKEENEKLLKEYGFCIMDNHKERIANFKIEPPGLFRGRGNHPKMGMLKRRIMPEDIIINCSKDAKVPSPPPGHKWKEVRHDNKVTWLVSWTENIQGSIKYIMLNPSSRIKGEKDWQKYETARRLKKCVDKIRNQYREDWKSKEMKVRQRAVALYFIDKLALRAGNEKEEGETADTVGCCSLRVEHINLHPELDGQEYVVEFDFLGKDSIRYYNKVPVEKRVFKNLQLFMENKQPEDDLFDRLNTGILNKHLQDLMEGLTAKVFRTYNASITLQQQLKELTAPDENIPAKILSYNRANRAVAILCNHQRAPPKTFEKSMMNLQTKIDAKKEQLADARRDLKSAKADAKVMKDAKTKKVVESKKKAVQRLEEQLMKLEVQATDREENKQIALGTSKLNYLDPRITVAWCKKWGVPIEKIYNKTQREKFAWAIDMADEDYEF
The test can be described thus: Topoisomerase 1-mediated DNA cleavage reactions (B), 117-bp DNA oligonucleotide. Format: biochemical. The conditions noted are these: Table 7; rubric based on the activity of camptothecin (FIG. 6).

Consider `O=C1c2cc3c(cc2-c2c1c1cc(F)c(F)cc1c(=O)n2CCCn1ccnc1)OCO3` [Compound 42], for which the Top 1 Cleavage result was “+ (+, 20-50% activity)”.
Regarding `O=C1c2cc3c(cc2-c2c1c1cc(Cl)c(Cl)cc1c(=O)n2CCCn1ccnc1)OCO3` [Compound 44], the Top 1 Cleavage entry is recorded as “+ (+, 20-50% activity)”.
